# In PubChem BioAssay AID588856 (National Center for Advancing Translational Sciences (NCATS), 2011):
# The list shows a part of the results, in another mix than the full data. Activity calls are given as the source filed them. Calls follow the shape of the dose curve; as a rule, active = well fitted cell-killing curve with a large enough effect; inactive = no such curve, though single readings can be large or run the other way. Entries that show only a call come without a potency.
# Experiment: qHTS for Inhibitors of TGF-b: Cytotox Counterscreen
# Details: HepG2 CAGA-GFP viability, ATP luminescence, 18 h; series mostly up to 46.1 µM
# Excerpt: TGF-b is a main component in the TGF-b signaling pathway which plays diverse roles in cellular and development pathways. TGF-b is mediated by transcription factors called "Smads". Although the Smad-dependent pathway is the primary canonical TGF-b signaling mode, TGF-b1 can also activate alternative signaling pathways, including those involving MAPK (ERK, JNK and p38). This interaction may mediate or enhance Smad-dependent responses, or can exert Smad-independent effects. The complexity of this signaling cascade allows the TGF-b superfamily to perform unique, overlapping or redundant functions. We believe that targeting the TGF-beta pathway at the Smad-transcription factor level may eliminate the consequences of disrupting the entire pathway and offer specificity without affecting other signaling pathways. Smad3 is the primary transducer of TGF-b's signals and Smad3 regulates many functions attributed to TGF-b signaling. We hypothesize that Smad3 inhibitors will selectively eliminate Smad3-specific TGF-beta signals without undesired off-target effects. We aim to identify Smad3-small molecule antagonists using a quantitative high throughput screening (qHTS) approach.
# A high-throughput assay was developed to screen the NIH Molecular Libraries Small Molecule Repository (MLSMR). This is a cell based assay, where TGF-b is tagged with GFP. This is a counterscreen that evaluates the cytotoxicity of the compounds that were screened in the primary cell-based screen (AID 588855).
# MH087449NIH Chemical Genomics Center [NCGC]
# NIH Molecular Libraries Probe Centers Network [MLPCN]
# Assay Submitter (PI): Sushil Rane, National Institute of […]
# Suspensions of trypsinized HEPG2 CAGA-GFP cells were dispensed into white, tissue culture-treated, solid 1536-well plates at 5uL/well (1000 cells/well final concentration) in DMEM medium supplemented with 1% FBS. Plates were incubated at 37 degrees C for 2 hours, after which 23 nL of compounds or DMSO were delivered to each well using a pin tool. One uL of recombinant TGF-beta in DMEM (1% FBS) was then dispensed (500 pg/mL final concentration), and plates were incubated at 37 degrees C for 18 hours. Two uL of CellTiter Glo (Promega), a luminescence-based viability reagent, was dispensed, followed by a 10 minute room temperature incubation. The plates were then measured on a PerkinElmer ViewLux plate reader for luminescence (clear filter) using a 5 second exposure. The %Activity was determined from the corrected luminescence values. Wells containing media only (no cells) were used to normalize %Activity of identified toxic compounds; media-only wells corresponded to 100%Activity (complete cell-killing), while DMSO-dosed cell controls were used to normalize 0%Activity (no toxicity).
# Concentration-response curves were fitted to the signals arising from the resulting luminescence. The concentration-effect curves were then classified based on curve quality (r2), response magnitude and degree of measured activity, and compounds were subsequently categorized based on their curve class.
# Potency is read from the fitted curve at half-maximal effect.
row,Compound,Potency
1,O=C(O)C(=O)c1ccc(N(CCCl)CCCl)cc1,inactive
2,O=C(Nc1ccncc1[N+](=O)[O-])c1ccc([N+](=O)[O-])cc1[N+](=O)[O-],inactive
3,O=C(COc1ccccc1)OC1CN2CCC1CC2 (stereo not given),inactive
4,COC(=O)C1(C)COP(=O)(N2CCCC2)OC1 (stereo not given),inactive
5,COP1(=S)c2c(C)nn(CCC#N)c2N=C(c2ccc(F)cc2)N1C (stereo not given),inactive
6,CCC(C)N(CC(C)C)C(=S)SC(NC(C)=O)C(Cl)(Cl)Cl (stereo not given),inactive
7,CCOP(=O)(Nc1cccc2cccnc12)OCC,inactive
8,CSc1ccc(Nc2c([N+](=O)[O-])cc([N+](=O)[O-])cc2[N+](=O)[O-])cc1,active: 7.08 µM
9,O=C(OC1CN2CCC1CC2)c1cccc([N+](=O)[O-])c1 (stereo not given),inactive
10,CCOC(=O)c1ccc(NC(=O)C(C)(CCl)SC)cc1 (stereo not given),inactive
11,COP(=O)(OC)N1CC1c1ccccc1 (stereo not given),inactive
12,Cc1cc(SC(NC(=O)c2ccccc2)C(Cl)(Cl)Cl)nc(C(C)C)n1 (stereo not given),inactive
13,CCCCOc1ccc(C(=O)NCC2(N3CCCCC3)CCCCC2)cc1OC,inactive
14,O=C(O)C(O)c1ccc(N(CCCl)CCCl)cc1 (stereo not given),inactive
15,CCOC(=O)Nc1ccc([As](=O)(O)O)c(O)c1,inactive
16,CC1CCNP(=O)(N(CCCl)CCCl)O1 (stereo not given),inactive
17,Cc1cc(SC(NC=O)C(Cl)(Cl)Cl)ncn1 (stereo not given),inactive
18,O=P(Nc1ccccn1)(c1cccc2ccccc12)c1cccc2ccccc12,inactive
19,O=[N+]([O-])c1ccc(Nc2ccc(Oc3ccc([N+](=O)[O-])cc3[N+](=O)[O-])cc2)c([N+](=O)[O-])c1,inactive
20,CCOC(=O)Nc1cccc([As](=O)(O)O)c1,inactive
21,ClCCN(CCCl)c1ccc(CC2C=CC=C2)cc1,inactive
22,Cc1ccc(OP(=O)(Nc2ccc([N+](=O)[O-])cn2)Oc2ccc(C)cc2)cc1,inactive
23,Cc1ccc2nc3c(c(C)c2c1)CC(C(Cl)Cl)S3 (stereo not given),inactive
24,COc1cc(C(=O)NCC2(N3CCOCC3)CCCCC2)ccc1OCC(C)C,inactive
25,O=[N+]([O-])c1ccc(-c2cc([N+](=O)[O-])c(O)c([N+](=O)[O-])c2)cc1,inactive

row,Compound,Potency
1,C[As](=O)(O)c1cccc(C(=O)O)c1,inactive
2,O=[As](O)(c1ccc(O)cc1)c1ccccc1O,inactive
3,O=[N+]([O-])c1cc([N+](=O)[O-])c(-c2ccn[nH]2)s1,active: 15.8 µM
4,CCN(CC)C(=S)SC(NC=O)C(Cl)(Cl)Cl (stereo not given),inactive
5,O=C(OC1CN2CCC1CC2)c1cccc2[nH]cnc12 (stereo not given),inactive
6,CC(C)NC(=O)NP(=O)(Oc1ccccc1)Oc1ccccc1,inactive
7,O=Cc1ccc(NCCCl)cc1,inactive
8,ClCCSc1nnc(-c2cccnc2)o1,inactive
9,CC(C)c1ccc(OP(=O)(Nc2ccccn2)Oc2ccccc2F)cc1 (stereo not given),inactive
10,COC(=O)C1(C)COP(=O)(N2CCCCCC2)OC1 (stereo not given),inactive
11,O=P1(N(CCCl)CCCl)Nc2ccccc2N1,inactive
12,O=P1(N(CCCl)CCCl)OCCCN1CCCl (stereo not given),inactive
13,COc1cc(I)ccc1[As](=O)(O)O,inactive
14,COc1ccc2nc(NP(=O)(c3ccccc3)c3ccccc3)sc2c1,inactive
15,Cc1c2c(nc3ccccc13)SC(C(Cl)Cl)C2 (stereo not given),inactive
16,Cc1cc(=O)[nH]c(N[N+](=O)[O-])n1,inactive
17,O=C(OC1CN2CCC1CC2)C12CC3CC(CC(C3)C1)C2 (stereo not given),inactive
18,O=[N+]([O-])c1cc(Oc2ccc([N+](=O)[O-])cc2C(F)(F)F)cc([N+](=O)[O-])c1,inactive
19,COc1ccc(N/C(=N/P(=O)(N2CCOCC2)N2CCOCC2)N2CCOCC2)cc1,inactive
20,O=[As](O)(c1cccc(O)c1)c1cccc(O)c1,inactive
21,Cc1cccc(OCC(=O)OC2CN3CCC2CC3)c1 (stereo not given),inactive
22,O=C(OC1CN2CCC1CC2)c1ccc(Cl)cc1 (stereo not given),inactive
23,CS(=O)(=O)c1ccc(Cl)c(NC(=O)COC(=O)C(O)(c2ccccc2)c2ccccc2)c1,inactive
24,COc1cc(C(=O)NCC2(N3CCOCC3)CCCCC2)cc(Cl)c1OC(C)C,inactive
25,O=[As](O)(O)c1cccnc1,inactive

row,Compound,Potency
1,CCOP(=O)(Nc1cccc2ccccc12)OCC,inactive
2,COc1cc(C2NCCC3(OCCO3)C2(C)C)cc(OC)c1OC (stereo not given),inactive
3,Cc1ccc(NCCc2c([N+](=O)[O-])cc([N+](=O)[O-])cc2[N+](=O)[O-])cc1,inactive
4,Nc1cccc2c([As](=O)(O)O)cccc12,inactive
5,CCCOP(=S)(Nc1nc(N)cc(=O)[nH]1)OCCC,inactive
6,O=C(O)COc1ccc([As](=O)(O)O)cc1[N+](=O)[O-],inactive
7,Nc1ccccc1[As](=O)(O)c1ccccc1,inactive
8,O=P(Nc1nccs1)(c1ccccc1)c1nc2ccccc2s1 (stereo not given),inactive
9,O=P(Nc1nccs1)(Oc1ccccc1)Oc1ccccc1,inactive
10,CCOP1(=S)c2c(C)nn(CCC#N)c2N=C(c2ccccc2F)N1C (stereo not given),inactive
11,CS(=O)(=O)c1cc([N+](=O)[O-])c2no[n+]([O-])c2c1,inactive
12,CCOP1(=S)c2c(C)nn(CCC#N)c2N=C(c2ccc(F)cc2)N1C (stereo not given),inactive
13,CN(C(=O)Cc1ccccc1)[C@@H]1CC[C@]2(CCCO2)C[C@H]1N1CCCC1,inactive
14,N#CCCN(C(=O)COC(=O)C(O)(c1ccccc1)c1ccccc1)c1ccc(F)cc1,inactive
15,Cc1ccccc1C(=O)O/N=C(/C(N)=O)P(=O)(OC(C)C)OC(C)C,inactive
16,CN(C(=O)Cc1ccc(Cl)c(Cl)c1)[C@H]1CC[C@@]2(CCCO2)C[C@@H]1N1CCCC1,inactive
17,CN(C)C(=O)c1cc([N+](=O)[O-])cc2c1-c1c(cc([N+](=O)[O-])cc1[N+](=O)[O-])C2=O,active: 12.6 µM
18,O=[N+]([O-])c1ccc2c(c1)nnn2O,inactive
19,NC(=O)Nc1ccc([As](=O)(O)O)cc1,inactive
20,CN(C)C1(CNC(=O)c2ccc(S(C)(=O)=O)cc2)CCCCC1,inactive
21,CCCC1OP(=O)(Nc2ccccc2)OCC1CC (stereo not given),inactive
22,O=C(/C=C/c1ccccc1)OC1CN2CCC1CC2 (stereo not given),inactive
23,COc1cc([N+](=O)[O-])ccc1[N+](=O)[O-],inactive
24,Cc1ccc(C(=O)OC2CN3CCC2CC3)cc1 (stereo not given),inactive
25,CC1CCC(C(C)C)C(OP(=O)(Nc2ccccn2)c2ccccc2)C1 (stereo not given),inactive
